# Experimental data as given in PubChem BioAssay AID1007 (NMMLSC, 2008).
# Protein sequences, listed by entry. Tags and fused reporters are not part of them.
# UniProt Q07817, whole entry: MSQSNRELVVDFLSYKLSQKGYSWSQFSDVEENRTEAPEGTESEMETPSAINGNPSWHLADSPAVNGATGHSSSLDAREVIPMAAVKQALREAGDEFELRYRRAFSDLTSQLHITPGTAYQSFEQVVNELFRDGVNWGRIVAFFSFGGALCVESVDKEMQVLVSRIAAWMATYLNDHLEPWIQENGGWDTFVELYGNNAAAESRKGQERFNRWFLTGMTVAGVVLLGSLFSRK
# The entries are a selection whose mix differs from that of the whole data set. The source made the active and inactive calls. Cut-off read from the data, not from the text of the source: active = inhibition above about 40%.
# Target: Bcl-2-like protein 1 (Homo sapiens) (UniProt Q07817)
# Assay: Bcl-XL/Bim peptide interaction blockers – biochemical, multiplexed, bead flow cytometry, human Bcl-XL, primary screen (AID 1007)
# Conditions: Bim peptide-Bcl-XL binding, fluorescence, at 10 µM, hits give high values
row,SMILES,inhibition
1,COc1ccccc1OP(C)(=O)Nc1ccccc1 (centres undefined),inactive: -2%
2,CP(=O)(Nc1ccccc1Br)Oc1ccccc1 (centres undefined),inactive: -3%
3,CP(=S)(Nn1cnnc1)Oc1ccccc1 (centres undefined),inactive: -4%
4,CP(=O)(NC(=O)Nc1ccccc1)Oc1ccccc1 (centres undefined),inactive: -4%
5,Cc1cc(C)cc(OP(C)(=O)Nc2ccc(SC(F)(F)F)cc2)c1 (centres undefined),inactive: 1%
6,Cc1cccc(C)c1OP(C)(=O)Nc1ccc(SC(F)(F)F)cc1 (centres undefined),inactive: 10%
7,CP(=O)(Oc1ccccc1)OC(c1ccccc1)C(F)(F)F (centres undefined),inactive: 0%
8,CP(=O)(Nc1ccccn1)Oc1ccc(Cl)cc1 (centres undefined),inactive: -3%
9,CCOP(C)(=S)SCC(=O)NC(C)C(=O)O (centres undefined),inactive: 0%
10,CCOC(=O)c1ccc(NP(C)(=O)Oc2ccc(OC)cc2)cc1 (centres undefined),inactive: -12%
11,CCN(CC)CCCOC(=O)C(O)(c1ccccc1)c1ccccc1,inactive: -4%
12,CC(C)(C)c1ccc(OP(C)(=O)Nc2ccc(SC(F)(F)F)cc2)cc1 (centres undefined),inactive: -3%
13,Cc1cccc(C)c1OP(C)(N)=O (centres undefined),inactive: 1%
14,O=[N+]([O-])c1ccc2c(c1)C=Nc1ccccc1O2,inactive: -3%
15,COc1ccccc1OP(C)(=O)Nc1cc(Cl)ccc1C (centres undefined),inactive: -2%
16,COc1ccc(OP(C)(=O)Nc2cccc(F)c2)cc1 (centres undefined),inactive: 0%
17,Cc1cc(C)cc(OP(C)(N)=O)c1 (centres undefined),inactive: -1%
18,CCOC(=O)c1ccc(NP(C)(=O)Oc2ccccc2)cc1 (centres undefined),inactive: -5%
19,COc1ccccc1OP(C)(=O)Nc1ccc(C)cc1 (centres undefined),inactive: 7%
20,Cc1ccc(NP(C)(=O)Oc2ccccc2)c(C)c1 (centres undefined),inactive: 4%
21,CC1=NCCc2c1[nH]c1ccccc21.O=[N+]([O-])c1cc([N+](=O)[O-])c(O)c([N+](=O)[O-])c1,inactive: -1%
22,Cc1cc(C)cc(OP(C)(=O)Nc2ccc(C)cc2C)c1 (centres undefined),inactive: 3%
23,CCOC(=O)c1ccc(NP(C)(=O)Oc2cc(C)cc(C)c2)cc1 (centres undefined),inactive: -3%

row,SMILES,inhibition
1,CP(=O)(Nc1cccc(Br)c1)Oc1ccccc1 (centres undefined),inactive: -2%
2,Cc1cc(C)cc(OP(C)(=O)Nc2ccccn2)c1 (centres undefined),inactive: -6%
3,Cc1ccc(C)c(NP(C)(=O)Oc2ccccc2)c1 (centres undefined),inactive: 0%
4,O=[N+]([O-])c1cc([N+](=O)[O-])c(-n2nnc3ccccc32)c([N+](=O)[O-])c1,inactive: -5%
5,Cc1nc2ccc3ccccc3c2s1.O=[N+]([O-])c1cc([N+](=O)[O-])c(O)c([N+](=O)[O-])c1,inactive: 2%
6,CP(=O)(Nc1ccc(SC(F)(F)F)cc1)Oc1ccccc1 (centres undefined),inactive: -9%
7,CCCOc1ccc(NP(C)(=O)Oc2ccc(Cl)cc2)cc1 (centres undefined),inactive: 0%
8,CN1CCCCC1COC(=O)C1(O)c2ccccc2CCc2ccccc21 (centres undefined),inactive: -6%
9,COc1ccccc1OP(C)(=O)Nc1c(C)cccc1C (centres undefined),inactive: 0%
10,COc1ccc(NP(C)(=O)Oc2ccccc2OC)cc1 (centres undefined),inactive: -2%
11,CN(C)CCOC(=O)C(O)(c1ccccc1)C1CCCCC1 (centres undefined),inactive: -3%
12,COc1ccc(OP(C)(=O)Nc2cccc(Br)c2)cc1 (centres undefined),inactive: -8%
13,O=[N+]([O-])c1cc([N+](=O)[O-])c(NCC2CCS(=O)(=O)C2)c([N+](=O)[O-])c1 (centres undefined),inactive: -2%
14,CCOP(C)(=S)SCC(=O)NC(C)(CC)C(=O)O (centres undefined),inactive: -6%
15,Cc1ccccc1NP(C)(=O)Nc1ccccc1C,inactive: -5%
16,CP(=O)(Nc1ccc2c(c1)OCCO2)Oc1ccccc1 (centres undefined),inactive: -1%
17,CC(C)c1ccc(OP(C)(=O)Nc2ccc(SC(F)(F)F)cc2)cc1 (centres undefined),inactive: -19%
18,CP(=O)(Nc1ccccc1F)Oc1ccccc1 (centres undefined),inactive: -2%
19,O=C(OCCN1CCN(CCOCc2ccccc2)CC1)C(O)(c1ccccc1)c1ccccc1,inactive: -4%
20,COc1ccc(OP(C)(=O)Nc2ccc(SC(F)(F)F)cc2)cc1 (centres undefined),inactive: -2%
21,CCOC(=O)c1ccc(NP(C)(=O)Oc2ccc(F)cc2)cc1 (centres undefined),inactive: -3%
22,CP(=O)(Nc1ccccc1)Oc1ccc(F)cc1 (centres undefined),inactive: -2%
23,CCN(CC)CCCOC(=O)C(O)(c1ccccc1)C1CCCCC1 (centres undefined),inactive: -5%

row,SMILES,inhibition
1,COc1ccc(OP(C)(=O)Nc2ccccc2Br)cc1 (centres undefined),inactive: -6%
2,COc1ccccc1OP(C)(=O)Nc1ccc(C)c(C)c1 (centres undefined),inactive: 0%
3,Cc1cc(C)cc(OP(C)(=O)Nc2cccc(C(F)(F)F)c2)c1 (centres undefined),inactive: -1%
4,CP(=O)(OCCOc1ccccc1)OCCOc1ccccc1,inactive: -2%
5,CP(=O)(Nc1ccc(Cl)cc1Cl)Oc1ccccc1 (centres undefined),inactive: -4%
6,Cc1nc2ccc3ccccc3c2o1.O=[N+]([O-])c1cc([N+](=O)[O-])c(O)c([N+](=O)[O-])c1,inactive: 0%
7,CN(C)CCOC(=O)C(O)(c1ccccc1)C1CCCC1 (centres undefined),inactive: -4%
8,COc1ccc(OP(C)(=O)Nc2ccccn2)cc1 (centres undefined),inactive: -6%
9,CCc1ccc(OP(C)(=O)O)cc1,inactive: -2%
10,CP(=O)(Nc1ccccn1)Oc1ccccc1 (centres undefined),inactive: -4%
11,COc1ccccc1OP(C)(=O)Nc1ccc(C)cc1C (centres undefined),inactive: 5%
12,O=[N+]([O-])c1cc([N+](=O)[O-])c(Nc2ccccn2)c([N+](=O)[O-])c1,inactive: -5%
13,Cc1c(NP(C)(=O)Oc2ccc(C(C)C)cc2)c(=O)n(-c2ccccc2)n1C (centres undefined),inactive: -1%
14,CP(=O)(Oc1ccccc1)N1CCOC1=O (centres undefined),inactive: -3%
15,CCc1ccc(OP(C)(=O)Nc2cccnc2)cc1 (centres undefined),inactive: -1%
16,CCN(CC)CC(O)COC(=O)C(O)(c1ccccc1)C1CCCCC1 (centres undefined),inactive: -7%
17,COc1ccc(OP(C)(=O)Nc2ccc(Br)cc2)cc1 (centres undefined),inactive: -5%
18,CN(C)C(=O)c1c([N+](=O)[O-])cc([N+](=O)[O-])cc1[N+](=O)[O-],inactive: 0%
19,CP(=O)(Nc1ccc(Cl)cc1)Oc1ccc(F)cc1 (centres undefined),inactive: -3%
20,CC(C)(C)c1ccc(OP(C)(=O)O)cc1,inactive: 0%
21,COc1ccccc1OP(C)(=O)Nc1ccccc1Br (centres undefined),inactive: -2%
22,CP(=O)(OC12CC3CC(CC(C3)C1)C2)OC12CC3CC(CC(C3)C1)C2,inactive: -3%
23,CCOC(=O)c1ccc(NP(C)(=O)Oc2ccc(Cl)cc2)cc1 (centres undefined),inactive: -6%
